# Yeast mating assay B: variants of the scFv Ab-14

The measurements come from Li et al. 2023 (doi:10.1038/s41467-023-39022-2) through the FLAb antibody collection.

The target is the same throughout: PDVDLGDISGINAS, from the HR2 region of SARS-CoV-2 spike.

Ab-14 is the parent antibody, in scFv form: VH, then a (GGGGS)3 linker, then VL. The heavy chain is unchanged in all variants.
VH: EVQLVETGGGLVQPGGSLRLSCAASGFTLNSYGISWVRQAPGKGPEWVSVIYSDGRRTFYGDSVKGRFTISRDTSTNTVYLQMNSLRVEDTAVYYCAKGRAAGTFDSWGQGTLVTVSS
VL: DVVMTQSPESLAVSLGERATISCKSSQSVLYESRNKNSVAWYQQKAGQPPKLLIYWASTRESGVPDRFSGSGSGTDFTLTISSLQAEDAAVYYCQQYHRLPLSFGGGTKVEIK

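The starting antibody came from a phage panning campaign against this peptide. The variants were designed computationally from a first round of random CDR variants and then made and measured. Several design methods are mixed in this list. The scFvs were displayed on barcoded MATa yeast, the peptide on MATalpha yeast. The frequency of each diploid, read from paired DNA barcodes, reflects how well the two displayed proteins bind. Scores were corrected for input abundance and mapped to Kd with protein pairs of known affinity run in the same pool. Each pool was mated in six replicate cultures.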

Each variant is given by its three light chain CDRs, as the data file delimits them; those of the parent are KSSQSVLYESRNKNSVA, WASTRES, QQYHRLPLS.
The read-out is the apparent dissociation constant on a log10 scale (nM): the lower, the stronger.
Averages over replicates are reported, and they cover detected replicates only.
An entry "no signal" has no value in the source: the pair was not observed among the diploids in any replicate. This suggests poor binding but is not conclusive.
The authors' rule: three or more of the six replicates give a measured affinity, fewer mean a poor binder.
Empty control strains, which show no peptide, gave a signal in 4% of pairings with all light chain designs; the median was 2.64 and 95% of these signals were weaker than 1.59. No background was subtracted. The control count says in how many pairings with the empty strains this scFv gave a signal.
The parent sequence was in this pool as ten entries: three were never detected, three once, and four in most replicates, with averages from 0.34 to 2.37.
Values of this round are not directly comparable with the first-round values of the same sequences.

CDR-L1,CDR-L2,CDR-L3,"log10 Kd (nM), mean",replicates with signal,control signals
KLVQPDDNDNQDMRAVA,DENTLGQ,QQYHRLPLG,2.11,3 of 6,1 of 18
KLMQSDLYESRNKNSVA,NASTRMS,QQYHRLPLS,-0.33,6 of 6,2 of 18
KQSQSVLYESSNKWSVA,YASTRES,QQYHRLPLS,no signal,0 of 6,0 of 18
KSSQSFLYESRWKNSVA,GASTRES,QQYHRLPLS,0.73,6 of 6,0 of 18
KVCQSVLYESRMKNSVA,QASTRES,QQYHRLPLS,0.25,6 of 6,0 of 18
KQQGGQDYESRMDNSVA,DASTRES,QQYHRLPLS,0.45,6 of 6,1 of 18
SIYDITGMESRNKNPIA,DVSTRPS,QQYDRLPLS,0.24,6 of 6,3 of 18
KLGAWMYVSTEAKRAIA,QDEMRVH,QQYDRLPLM,1.61,5 of 6,0 of 18
KSSQSWLAESRNKNSVW,WASTRES,QQYHRLPLS,no signal,0 of 6,0 of 18
TLYGLSMSMSKNKNNVA,EMTTREE,QQYDRLPLV,0.44,6 of 6,0 of 18
KQLQSVLYESRDKNSVA,HASTRED,QQYHRLPLS,0.27,6 of 6,1 of 18
QLRDAIWAEGMNKQSIA,ENEVSKD,QQYNRLPLS,1.85,6 of 6,1 of 18
KLTDYMQHSIAMDNSIA,QTNIYHE,QQYGRLPLV,1.35,6 of 6,3 of 18
KLSESVEYESRNKNSVA,QASTRES,QQYHRLPLS,-0.40,6 of 6,0 of 18
KLSMSQLYESRNKNSVA,NASQRES,QQYHRLPLS,-0.25,6 of 6,1 of 18
KLSFSMLYESRNKNSVA,NASTRES,QQYHRLPLS,-0.42,6 of 6,0 of 18
KLRLSQEYESRQKNSVA,NASTRCV,QQYHRLPLS,0.39,6 of 6,1 of 18
KLSQSWLYEARNSNSVA,HASQRED,QQYHRLPLS,0.00,6 of 6,3 of 18
KIAFNSLIESKNLNSVA,EMTTREY,QDYDRLPLS,2.10,6 of 6,1 of 18
TLYGLSLSMSKNKNSVA,EMTTRED,QQYDRLPLI,0.36,1 of 6,0 of 18
MIHESYGLMQVKQSSIA,DNSTRED,QQYDRLPLS,no signal,0 of 6,2 of 18
KIGMTLNQLMHKKNNVA,DLVERAN,QQYFRLPLS,-0.18,6 of 6,3 of 18
HLELKVGGVQAVGDSVA,HASQRQA,QQYYQLPLT,0.46,6 of 6,2 of 18
KIGGVTNGISRSKNNVA,EQSTRED,QQYDRLPLS,0.25,6 of 6,0 of 18
IVSQLMLIGMHAKNSIA,EAEKRIN,QQYHRLPLI,2.01,6 of 6,3 of 18
KISQSELYESRNKNSVA,NASYRES,QQYHRLPLS,-0.15,6 of 6,0 of 18
KLGQMVLTGSYVKNSVA,QSSTREN,QQYHRLPLS,1.16,3 of 6,0 of 18
KSSQSVVYESDEKNSVA,WAYTRES,QQYHRLMLS,no signal,0 of 6,0 of 18
KLPQSTLYESRNKNSVA,QASQRES,QQYHRLPLS,0.28,6 of 6,2 of 18
KLSQSVDFESRNKNSVA,DASTRES,QQYHRLPLS,0.01,6 of 6,1 of 18
KSGPGVLYESRNKNSVA,GGSTRES,QQYHRLPLS,0.21,6 of 6,2 of 18
MVYGAAMMGGSARNSIA,NAQMRPD,QQYHRLPLI,0.33,3 of 6,1 of 18
KTEFSELYESRNKNSVA,NASERES,QQYHRLPLS,0.15,6 of 6,0 of 18
KSSQSVLYEDGNGNSVA,HASVRED,QQYHRLPLM,0.26,6 of 6,1 of 18
KSEQSGLYESRNKNSVA,SASVRES,QQYKRLPLS,0.54,6 of 6,0 of 18
GVDHTMESGKQAPNSIA,NAEQKTI,QQYQRLPLS,0.52,6 of 6,1 of 18
KLSQSVMYESRNKNNVA,EASTRES,QQYHRLPLS,0.37,6 of 6,2 of 18
KISQMVTYESTWGNAIA,QTSEREE,QQYHRLPLS,no signal,0 of 6,0 of 18
KSQLSVLYESRNKNEVA,FASTRES,QQPHRLPLS,no signal,0 of 6,0 of 18
KVSQSMLYESRNKNAVA,EASTRES,QQYHRLPLS,-0.35,6 of 6,1 of 18
KLSPSYLYESRNKNSVA,NASTRES,QQYHRLPLS,-0.01,6 of 6,1 of 18
KSLQSDLYESRNFNSVA,HASTRED,QQYHRLPLS,0.86,6 of 6,0 of 18
KLRQSTVYESRNKNKVA,WASTRES,QQYHRMPLS,1.83,6 of 6,0 of 18
KSSQSVEMESRNSNSVA,DASTRES,QQYHRLPLS,0.02,6 of 6,1 of 18
KSSQSVLYESRNKNSVA,WASTRES,QQYHRDPLS,no signal,0 of 6,1 of 18
KIIQEGLYESRNKNSVA,NASTRSP,QQYHRLPLS,-0.53,6 of 6,1 of 18
KSSISYLYESENKNSVA,QASQRES,QQYHRLPLS,0.71,6 of 6,2 of 18
KLQFGNLYESRNWNSVA,KASTRLQ,QQYHRLPLS,1.10,6 of 6,1 of 18
KLMQSELYESRNKNSVA,NASQRES,QQYHRLPLS,-0.12,6 of 6,1 of 18
HIQQSVGMTSRNKNSVA,ENSTRED,QQYDRLPLS,2.51,3 of 6,1 of 18
KLSASQLYESRASNAVA,QASQRMD,QQYHRLPLS,-0.47,6 of 6,1 of 18
KLSQSVLYEERNKNSVA,GASQRES,QQYHRLPLS,-0.27,6 of 6,0 of 18
KSSQSVLYESRNANSVA,GASTRES,QQYQRLPLM,-0.61,5 of 6,0 of 18
KLNSDSVLGWNINNSVA,EHSEVVQ,QQYVHLPLM,2.03,6 of 6,0 of 18
KFSQSWLYESRNKNSVA,GASTRES,QQYHRLPLI,-0.18,6 of 6,0 of 18
KFEQSELYESRNKNSVA,NASTRMS,QQYHRLPLS,-0.41,6 of 6,0 of 18
KLPQSALYESRNKNSVA,NASQRES,QQYHRLPLS,-0.27,6 of 6,0 of 18
TLYGLTNSMSKNKDNVA,EMSTREA,QQYDRLPLI,1.41,6 of 6,1 of 18
HLSQSDLYESRNKNSVA,NASTRES,QQYHRLPLS,0.00,6 of 6,1 of 18
TLGMQPTEMRDNKHAVA,DSNQRDR,QSYMRLPLS,0.42,6 of 6,0 of 18
KSSQQVLYESRNKNSVA,SASTRES,QAYHRLPLS,0.64,6 of 6,0 of 18
KLSQSVLYESRNTNSVA,NASTRET,QQYHRLPLS,-0.24,6 of 6,0 of 18
KSSQSWDYESRNKNSVA,GASTREN,QQYHRLPLS,-0.23,6 of 6,2 of 18
KLPQSVLYESRNKNSVA,NASTREE,QQYHRLPLS,-0.36,6 of 6,1 of 18
MIAQMMGWESNKIHSVA,QANLRED,QQYDRLPLE,1.51,6 of 6,1 of 18
TLGMQPTEMRDNKHAVA,DNNQRDR,QSYMRLPLS,2.27,1 of 6,0 of 18
KISQNMGETQRNKNSVA,EVSCVPS,QQYWRLPLS,1.78,6 of 6,1 of 18
KLSQSDLYESRNKNSVA,HASTRES,QQYHRLPLS,0.17,6 of 6,0 of 18
KSSQSVAMESRNANSVA,HASTRES,QQYHRLPLS,0.46,6 of 6,0 of 18
IVSQLMLWGLHAKNSIA,EAEMRTN,QQYDRLPLI,no signal,0 of 6,0 of 18
KLTSITGTEKVRGNNVA,EMETRES,QQYNRLPLS,0.30,6 of 6,0 of 18
KLSQSVEYQSRNKNAVA,SAQTRES,QQYHRLPLS,-0.29,6 of 6,0 of 18
KLGMTVGYEQRNKSRVA,DNNTRES,QQYDRLPLS,3.02,1 of 6,1 of 18
KSSQSVLYESRNAYSVA,WASTRCS,QQYHALPLS,1.26,2 of 6,0 of 18
KVSYSYLLESRNKNSVA,EASTRES,QQYHRLPLS,0.11,6 of 6,3 of 18
KSSGSVLMEQRNKNSLA,WASTRES,QQYHRLPLS,3.51,2 of 6,0 of 18
KLSQSVLYGSRNKNSVA,NASTRMS,QQYHRLPLS,0.08,6 of 6,0 of 18
RLQEDNQLGTNIGNNIA,EHQTVFD,QQYAHLPLQ,1.56,6 of 6,1 of 18

Extract of 13 entries:

{"CDR-L1": "KQSQSVLYESSNKWSVA", "CDR-L2": "YASTRES", "CDR-L3": "QQYHRLPLS", "log10 Kd (nM), mean": "no signal", "replicates with signal": "0 of 6", "control signals": "0 of 18"}
{"CDR-L1": "KSGPGVLYESRNKNSVA", "CDR-L2": "GGSTRES", "CDR-L3": "QQYHRLPLS", "log10 Kd (nM), mean": "0.21", "replicates with signal": "6 of 6", "control signals": "2 of 18"}
{"CDR-L1": "KSSQSVLYEDGNGNSVA", "CDR-L2": "HASVRED", "CDR-L3": "QQYHRLPLM", "log10 Kd (nM), mean": "0.26", "replicates with signal": "6 of 6", "control signals": "1 of 18"}
{"CDR-L1": "TLYGLSMSMSKNKNNVA", "CDR-L2": "EMTTREE", "CDR-L3": "QQYDRLPLV", "log10 Kd (nM), mean": "0.44", "replicates with signal": "6 of 6", "control signals": "0 of 18"}
{"CDR-L1": "KLVQPDDNDNQDMRAVA", "CDR-L2": "DENTLGQ", "CDR-L3": "QQYHRLPLG", "log10 Kd (nM), mean": "2.11", "replicates with signal": "3 of 6", "control signals": "1 of 18"}
{"CDR-L1": "KSSQSVAMESRNANSVA", "CDR-L2": "HASTRES", "CDR-L3": "QQYHRLPLS", "log10 Kd (nM), mean": "0.46", "replicates with signal": "6 of 6", "control signals": "0 of 18"}
{"CDR-L1": "KLSESVEYESRNKNSVA", "CDR-L2": "QASTRES", "CDR-L3": "QQYHRLPLS", "log10 Kd (nM), mean": "-0.40", "replicates with signal": "6 of 6", "control signals": "0 of 18"}
{"CDR-L1": "RLQEDNQLGTNIGNNIA", "CDR-L2": "EHQTVFD", "CDR-L3": "QQYAHLPLQ", "log10 Kd (nM), mean": "1.56", "replicates with signal": "6 of 6", "control signals": "1 of 18"}
{"CDR-L1": "KSEQSGLYESRNKNSVA", "CDR-L2": "SASVRES", "CDR-L3": "QQYKRLPLS", "log10 Kd (nM), mean": "0.54", "replicates with signal": "6 of 6", "control signals": "0 of 18"}
{"CDR-L1": "KISQMVTYESTWGNAIA", "CDR-L2": "QTSEREE", "CDR-L3": "QQYHRLPLS", "log10 Kd (nM), mean": "no signal", "replicates with signal": "0 of 6", "control signals": "0 of 18"}
{"CDR-L1": "KSSQSVEMESRNSNSVA", "CDR-L2": "DASTRES", "CDR-L3": "QQYHRLPLS", "log10 Kd (nM), mean": "0.02", "replicates with signal": "6 of 6", "control signals": "1 of 18"}
{"CDR-L1": "KSLQSDLYESRNFNSVA", "CDR-L2": "HASTRED", "CDR-L3": "QQYHRLPLS", "log10 Kd (nM), mean": "0.86", "replicates with signal": "6 of 6", "control signals": "0 of 18"}
{"CDR-L1": "KLSASQLYESRASNAVA", "CDR-L2": "QASQRMD", "CDR-L3": "QQYHRLPLS", "log10 Kd (nM), mean": "-0.47", "replicates with signal": "6 of 6", "control signals": "1 of 18"}